# Test results from article PMC9509318 (2022).
# T1: Pfs48/45 full-length ectodomain (Plasmodium falciparum, UniProt Q8I6T1 27-427)
# T1 chain: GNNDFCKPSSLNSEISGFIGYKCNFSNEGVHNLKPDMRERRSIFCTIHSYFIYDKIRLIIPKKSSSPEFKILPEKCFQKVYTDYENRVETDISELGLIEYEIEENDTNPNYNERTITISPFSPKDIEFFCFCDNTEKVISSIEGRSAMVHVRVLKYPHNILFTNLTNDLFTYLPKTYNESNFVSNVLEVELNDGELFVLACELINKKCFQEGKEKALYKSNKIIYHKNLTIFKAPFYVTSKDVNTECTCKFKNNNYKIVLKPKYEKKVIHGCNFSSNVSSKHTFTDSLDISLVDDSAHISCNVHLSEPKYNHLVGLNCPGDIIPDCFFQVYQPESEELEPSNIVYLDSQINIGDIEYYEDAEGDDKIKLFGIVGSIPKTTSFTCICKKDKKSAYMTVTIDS
# B1: 85RF45.1 monoclonal antibody (antibody, V domains shown)
# VH: EVQLVESGGGLLQPGRSLKLSCVASGFTFNNYWMSWIRQAPGKGLEWIASISNIGGTIYYPDSVKGRFTISRDSAQNTLYLQMNSLRSEDTATYYCTRDLRMSDYFDYWGQGVMVTVSS
# VL: QFVLSQPNSVSTNLGSTVKLSCKRSTGNIGSNYVSWYQHHEGRSPTTMIYRDDQRPDGVPDRFSGSIDRSSNSALLTIDNVQTEDEAAYFCHSYSTGMYIFGGGTKLTVL
# Biological target: T1, Pfs48/45 full-length ectodomain
# Experiment: SPR
binder,measurement,value
B1,koff,0.00186 s⁻¹
